Binding of CDR-mutated scFvs to a peptide of the spike HR2 region

Reference: Engelhart et al. 2022, doi:10.1038/s41597-022-01779-4. File: FLAb, binding data.

Binding partner: SARS-CoV-2 spike HR2 peptide, sequence PDVDLGDISGINAS.

Parent scFv Ab-91: VL joined to VH by a (GGGGS)3 linker. Changes lie in the heavy chain CDRs alone.
VL: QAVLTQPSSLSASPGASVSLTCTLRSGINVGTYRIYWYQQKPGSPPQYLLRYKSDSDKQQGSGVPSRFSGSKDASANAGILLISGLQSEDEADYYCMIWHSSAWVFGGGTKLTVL
VH: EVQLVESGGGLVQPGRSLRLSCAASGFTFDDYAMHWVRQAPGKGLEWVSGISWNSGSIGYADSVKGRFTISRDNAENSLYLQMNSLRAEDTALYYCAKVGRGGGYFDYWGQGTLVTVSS

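The parent was found by panning a naive human phage display library on the peptide. Variants in AAYL51 differ from the parent at up to three CDR positions; double and triple changes were sampled at random. In AlphaSeq, yeast of one mating type display the scFv and yeast of the other type display the target. Mating (16 h, 30 °C) was followed by selection of diploids and sequencing of their barcodes. The ratio of observed to expected reads was calibrated, replicate by replicate, on BCL2-family standards whose Kd was known from biolayer interferometry. Mating was done three times.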

The parent's heavy chain CDRs are GFTFDDYAMH, GISWNSGSIGYADSVK, VGRGGGYFDY; each variant's own CDRs replace them letter for letter. Values are log10 of the apparent Kd in nM; lower means stronger binding. A pair that was not seen in that replicate is written "ND"; this usually means weak binding, but a binder can also be missed. Three control strains display no target. For library AAYL51, 21% of the pairings with them gave a signal, with a median of 4.54 and one signal in twenty below 3.26, so weak values seen in few replicates may be background. For each scFv, signals with the empty controls are counted beside the result, with their mean in brackets. In this assay the parent's reference entry averaged 1.86; its copy inside this library read 0.88.

CDR-H1	CDR-H2	CDR-H3	replicates, log10 nM	control signals
GFTFDDYYMH	GISWISGSIGYADSHK	VGRGGGYFDY	ND / ND / ND	0 of 9
GFTFDDYYMH	GISWNSGSILEADSVK	VGRGGGYFDY	ND / ND / ND	1 of 9 (4.97)
GFTFDDYAMH	GILWNSGSIGYIDSVK	VGRGGGYFDY	4.71 / 4.40 / ND	5 of 9 (4.59)
GFTFDDYAMH	GISWNSGSIGYADSVK	VGDGGGYFDY	1.16 / 1.20 / 0.66	6 of 9 (5.18)
GFMFDDYAMH	GISWNSGSITYADSVK	QGRGGGYFDY	ND / ND / ND	0 of 9
GYTFDLYAMH	GISWNSTSIGYADSVK	VGRGGGYFDY	ND / ND / ND	2 of 9 (3.24)
GFTFDDYAMH	GISWNSGSIGYMWSVK	VGRGGGYFIY	ND / ND / ND	0 of 9
GFTFDDYAKH	GISWESGSIGYADVVK	VGRGGGYFDY	ND / ND / ND	1 of 9 (4.20)
GFTFDDYAEH	GISWSSISIGYADSVK	VGRGGGYFDY	ND / ND / ND	1 of 9 (4.30)
GFTFDDYAMQ	GISWNSGSIGYADSVK	VGRGGGYFDY	4.23 / ND / 4.83	3 of 9 (5.49)
GVTFDDYAMH	GISWNSGWIEYADSVK	VGRGGGYFDY	5.86 / ND / ND	2 of 9 (4.40)
GFIMDDYAMH	GISWNSGSIGYADSVK	VGRGGGYNDY	4.36 / 4.05 / 5.28	7 of 9 (4.32)
GFNFDDYAMH	GISWNSGSIGYAQSVK	VGRGGGYFDY	ND / ND / ND	0 of 9
GFTFDDYANH	GISWNSGSWGYADSVA	VGRGGGYFDY	ND / ND / 3.80	4 of 9 (4.70)
GFTFDAYAMH	GISSNSGSIGYWDSVK	VGRGGGYFDY	2.84 / 3.03 / 3.37	0 of 9
GFIFDDTAMH	GISWNSGSIGDADSVK	VGRGGGYFDY	4.95 / ND / ND	2 of 9 (5.80)
GFTFDDYAMH	PISWNSGSIGYADSVK	MGRGGFYFDY	5.20 / ND / ND	1 of 9 (3.05)
GFTFDDYAMH	GIGWNSGSILYADSVK	VGRGGGVFDY	3.46 / ND / ND	3 of 9 (3.55)
WFTFDDYEMH	GISWNSGSIGYADSKK	VGRGGGYFDY	ND / ND / ND	1 of 9 (5.18)
GFTFDDYAKH	GISWNSGNIGYADSVC	VGRGGGYFDY	ND / ND / ND	3 of 9 (5.12)
GFTFDDYAMH	GQSWNSGSIGYADSVK	VGRGGGYFDY	ND / ND / ND	0 of 9
GFTRDDYPMH	GISWNSGSIGYADRVK	VGRGGGYFDY	ND / ND / ND	1 of 9 (2.68)
GFTFDDYAMH	GISWDSGSKGYADSVK	VGRGGGYFDL	0.33 / 0.21 / -0.36	6 of 9 (4.56)
GFTFDDYAMH	GISWNSGLIGYADSVK	VGSLGGYFDY	4.32 / 5.93 / ND	5 of 9 (5.31)
GFNFDDYVMH	GWSWNSGSIGYADSVK	VGRGGGYFDY	5.93 / 6.07 / ND	5 of 9 (4.83)
GFTFDDYAMH	GISWASGSIFYADSVK	VGRGGRYFDY	ND / 4.34 / ND	0 of 9
GFTFDDYAMH	GIQWNSGSIGYADSVK	VGRHGGYFDY	3.24 / 3.43 / 3.32	7 of 9 (4.57)
GFTFDDYAMH	GISWNSGSINYADSVG	VGRGGGYFWY	ND / ND / ND	0 of 9
GFIFDDYFMH	GISWNSGSIGYADSIK	VGRGGGYFDY	4.87 / ND / ND	7 of 9 (4.69)
GFTFDDYAEH	GIDWNSGSIGYIDSVK	VGRGGGYFDY	ND / ND / ND	0 of 9
GFTFDDYFMH	GIVWNSGSIGYADSVK	VGRGGGYCDY	ND / ND / ND	0 of 9
GFTFDDYAMH	GISWVSGSIGYADSVK	VGRGGSVFDY	ND / 3.46 / ND	1 of 9 (3.49)
GFTFDDYAMH	GIIINSGSIGYADSVK	VCRGGGYFDY	ND / ND / ND	1 of 9 (3.92)
GFTEDDYAMH	GISWNSGHIGYADSVK	VGRGWGYFDY	ND / 4.13 / 4.92	2 of 9 (3.31)
GRTFDDYASH	GISWNSGSIGYADSVK	VGRWGGYFDY	ND / ND / 4.56	2 of 9 (4.63)
GVTFDDYAMH	GISWNWGSIGYADSVK	VGRGNGYFDY	ND / ND / ND	1 of 9 (4.63)
GFTFEDYAMH	GISWNSGSIGYADTVK	VLRGGGYFDY	2.54 / 3.14 / 3.39	1 of 9 (3.49)
GFTFDDYLMH	GISWNSGSIGYADSVS	VGRGGGYFDY	4.12 / 5.24 / 4.88	5 of 9 (4.75)
GFTFDDYAMH	GISWNSGSDGYADSDK	VGRGGAYFDY	5.20 / ND / ND	1 of 9 (4.20)
GLTFDDYAMH	GISWNSGSAGYADSVK	VGRGLGYFDY	ND / ND / ND	0 of 9
GFTFDDYAMH	GISWNSGSCGYAYSVK	VTRGGGYFDY	4.57 / ND / ND	4 of 9 (4.89)
GFTFDDYAMH	GISWSSGSIGYADKVK	VRRGGGYFDY	ND / ND / ND	1 of 9 (3.95)
GFTFDDYAMH	HISWNSGSINYPDSVK	VGRGGGYFDY	4.25 / 5.04 / 5.23	3 of 9 (4.21)
GFTQDDYAMH	GISWESGSIGYADSVK	VPRGGGYFDY	ND / ND / ND	4 of 9 (4.00)
GFTFLDYAMH	GISWNSGSIGYADCVK	VGRGGTYFDY	ND / 3.76 / ND	0 of 9
GFTFDDYAML	GISWNSGSIGYADSVK	VWRGGYYFDY	3.26 / ND / ND	1 of 9 (3.88)
GFTFDDWEMH	GISWNSGSPGYADSVK	VGRGGGYFDY	ND / ND / ND	2 of 9 (2.43)